Assay results taken from patent US20240368212A1, “SELECTIVE ISONITRILE INHIBITORS OF CYTOCHROME P450 SUBTYPES” (priority 2021, published 2024).
Values joined by “and” are separate entries in the source; they are usually repeats but may differ in a detail not shown here. Equal entries are not always repeated.

Chains of the proteins cited; added tags and fusions are not shown.
UniProt P10635, whole entry: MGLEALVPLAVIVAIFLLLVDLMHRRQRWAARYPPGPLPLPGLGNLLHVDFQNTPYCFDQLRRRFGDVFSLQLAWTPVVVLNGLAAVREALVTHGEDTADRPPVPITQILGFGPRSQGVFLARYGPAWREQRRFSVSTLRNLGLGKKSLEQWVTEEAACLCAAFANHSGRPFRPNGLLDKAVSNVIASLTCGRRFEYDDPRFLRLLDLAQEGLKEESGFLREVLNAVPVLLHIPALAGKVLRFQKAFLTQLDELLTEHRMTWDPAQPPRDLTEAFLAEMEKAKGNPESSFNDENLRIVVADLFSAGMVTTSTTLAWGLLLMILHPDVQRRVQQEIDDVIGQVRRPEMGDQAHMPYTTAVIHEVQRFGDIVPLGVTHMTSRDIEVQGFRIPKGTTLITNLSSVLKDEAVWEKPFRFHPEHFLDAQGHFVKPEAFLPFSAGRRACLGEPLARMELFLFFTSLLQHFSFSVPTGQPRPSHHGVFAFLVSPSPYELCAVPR
UniProt P08684, whole entry: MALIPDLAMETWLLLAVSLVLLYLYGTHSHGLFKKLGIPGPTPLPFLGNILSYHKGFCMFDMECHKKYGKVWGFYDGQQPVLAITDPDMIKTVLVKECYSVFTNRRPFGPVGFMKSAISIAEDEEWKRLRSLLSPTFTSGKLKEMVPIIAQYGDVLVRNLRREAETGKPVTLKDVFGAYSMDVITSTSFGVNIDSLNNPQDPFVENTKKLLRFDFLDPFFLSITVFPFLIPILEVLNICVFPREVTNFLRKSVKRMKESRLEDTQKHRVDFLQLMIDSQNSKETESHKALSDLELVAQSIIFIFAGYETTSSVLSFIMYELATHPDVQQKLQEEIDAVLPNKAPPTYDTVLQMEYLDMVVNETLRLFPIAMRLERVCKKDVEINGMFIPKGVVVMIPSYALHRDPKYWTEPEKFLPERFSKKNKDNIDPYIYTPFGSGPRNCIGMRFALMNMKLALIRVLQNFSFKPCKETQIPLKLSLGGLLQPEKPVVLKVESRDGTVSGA

What was measured:
CYP2D6 = CYP2D6 (Homo sapiens, UniProt P10635); conditions: read-out: Kd (dissociation constant); CYP2D6 1.0 μM
Method: (§1) Ligand binding assays. (Adapted from DeVore, N M, et al. (2009). Drug Metabolism and Disposition, 37(6), 1319-1327.) Ligand interaction with the heme iron was evaluated by titrating ligands into a cuvette containing purified CYP17A1, CYP2D6, or CYP3A4 and measured using a UV-visible scanning spectrophotometer. […] Ligands dissolved in DMSO were added to the sample cuvette and an equal volume of DMSO to the reference cuvette. Difference spectra were recorded from 300-500 nm after equilibration of enzyme and ligand. Binding to the enzyme was measured as the difference in maximal and minimal absorbance: A387-A419 for pregnanolone and 3-formyl pregnanolone, and A435-A393 for 3-formyl pregnanolone-20-isonitrile with CYP17A1; A434-A414 for 3-formyl pregnanolone-20-isonitrile with CYP3A4 and CYP2D6. […] All data fitting was accomplished using GraphPad Prism 9.

CYP3A4 [1] = target: T1, CYP3A4 (Homo sapiens, UniProt P08684)
Method: as §1

CYP3A4 [2] = target: T1, CYP3A4; conditions: reduced with sodium dithionite, re-oxidized in air

Substance	Kd (CYP2D6)	Kd (CYP3A4 [1]; read-out: Kd (dissociation constant), CYP3A4 1.0 μM)	dissociation constant for CYP3A4, fold higher than for CYP17A1 (CYP3A4 [1]; selectivity CYP3A4 vs CYP17A1)	stability of the reduced isonitrile complex (CYP3A4 [2])	Kd for CYP3A4, fold higher than 20-(R)-16 (CYP3A4 [1]; parent steroid vs isonitrile)
3β-formyl-(R)-(20-isonitrilo)pregnane [20-(R)-16]	250 nM and ~250 nM	300 nM and ~300 nM	at least 3 fold	clean two-state conversion between the reduced and oxidized complexes with the isonitrile still bound	
3b-formyl-5a-pregnanalone [reference compound]					10 fold
